The values below come from patent publication US6159704.

Values joined by “and” are separate entries in the source; they are usually repeats but may differ in a detail not shown here. Equal entries are not always repeated.

In assay [1] the target is PP2Ac of COS-1 cells (endogenous PP2A catalytic subunit / PP2A activity). The experiment in a line: 12CA5 immunoprecipitation from transfected COS-1 cells, PP2A activity in the precipitate.
Assay [2] shares this target. The experiment in a line: 12CA5 immunoprecipitation from transfected COS-1 cells, PP2A activity on 32P-LRRASVA.

In the case of “HA-tagged human eRF1 expressed in COS-1 cells (from UniProt P62495)”, the % of the total cytoplasmic PP2A activity brought down in assay [1] is 1% and 0.4% to 1.6% (2×). For the same substance, in assay [2], the % immunoprecipitated (of PP2A activity) turned out to be 0.39% and the PP2A activity in immunoprecipitates (mU) came out at 1.9 mU.
